# This is a sample that favours compounds with a hit; in the whole collection about 0.43% have one here.
# GIV-Gai inh: blocks GIV peptide binding to rat Galpha-i3; Galpha-i3/FITC-GIV peptide fluorescence polarization, 90 min; stronger effect = lower value; scaled: aluminum fluoride 0%, vehicle 100%; P08753; hit rate 0.42% among 210,000; AID 1224905; percent of control (FP), % (test concentration not listed);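 active = replicate mean at 85% of control or lower, very high polarization wells dropped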;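 also: wells of about 15 µL received 100 nL stock; the first replicate is given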
# HCMV NEC inh: inhibitors of HCMV UL50-UL53 interaction, biochemical, HTRF | HCMV UL50-UL53 nuclear egress complex (human cytomegalovirus) | normalized percent inhibition | inhibition, % (test concentration not listed) | 190,000 compounds, 0.15% hits; in the data active = inhibition above about 27%, passing the limit was not always enough
# A number is an active result; n = inactive; x = not tested or not shown.
SMILES,GIV-Gai inh,HCMV NEC inh
O=c1oc2cc(O)ccc2cc1-c1nnc(Nc2ccccc2F)s1,n,n
CCOc1ccc2cc(-c3nc4ccccc4s3)c(=O)oc2c1,n,n
O=C(CN1C(=O)c2ccccc2C1=O)Nc1ncn[nH]1,x,n
CN(C)S(=O)(=O)c1ccc2c(c1)/C(=C/c1cc3c([nH]1)CCCC3)C(=O)N2,-21,n
O=C1Nc2ccc(Br)cc2/C1=C/c1cc2c([nH]1)CCCC2,x,n
Cc1ccc(-c2csc3nnc(SCC(N)=O)n23)cc1,n,n
C=CC1=C(C(=O)O)N2C(=O)[C@H](NC(=O)C(=NO)c3csc(N)n3)[C@H]2SC1,x,n
C=CC1=C(C(=O)O)N2C(=O)C(NC(=O)C(=NOCC(=O)O)c3csc(N)n3)C2SC1 (stereo not drawn),x,95
Cc1ccc(O)c(C2=Nc3ccccc3N=C(c3ccccc3)C2)c1,n,n
N#CCc1c(C#N)c(N)nc(N2CCN(S(=O)(=O)c3ccccc3)CC2)c1C#N,x,n
N#CCc1c(C#N)c(N)nc(N2CCc3ccccc32)c1C#N,x,35
COc1cc2c(cc1OC)C(c1ccccc1)CC(=O)N2 (stereo not drawn),n,n
COc1cc2c(cc1OC)NC(=O)C2,n,64
NC(=O)CSc1nc2c(sc3ccccc32)c(=O)n1-c1ccccc1,n,x
O=C(/C=C(\O)c1ccccc1)C(=O)Nc1ccccn1,n,n
CC(NC(=O)COc1ccc(C#N)cc1)C1CC2CCC1C2 (stereo not drawn),x,n
CCN(CC)c1ccc(/C=c2\sc3nc(-c4ccco4)nn3c2=O)cc1,-83,n
CN(C)c1ccc(/C=c2/sc3nc(-c4ccc(Cl)cc4)nn3c2=O)cc1,n,x
CCOc1cc(C2C(C#N)=C(N)Oc3n[nH]c(-c4ccc5c(c4)OCO5)c32)ccc1OC(=O)N1CCOCC1 (stereo not drawn),n,x
O=C1N=c2ccccc2=C1c1sc(=S)n(NC(=O)c2ccc(Br)cc2)c1O,n,n
CCOC(=O)c1ccc2c(c1)N(CCCS(=O)(=O)O)/C(=C/C=C/c1n(CCCS(=O)(=O)[O-])c3cc(C(=O)OCC)ccc3[n+]1CC)N2CC,-62,x
CCOC(=O)c1ccc2c(c1)n(CCCS(=O)(=O)[O-])c(/C=C/C=C1\N(CC)c3cc(Cl)c(Cl)cc3N1CCOc1ccccc1)[n+]2CC,n,x
CN(C)CCC(=O)/C=C/c1ccco1,n,n
C=CCn1c(SCC(=O)NC(=O)NCc2ccco2)nc2ccc(Cl)cc2c1=O,x,n
CCN(CC)C(=O)Cn1nc(C)c(S(=O)(=O)N2CCCCC2)c1C,x,n
SMILES,GIV-Gai inh,HCMV NEC inh
Clc1ccc(C2=CC(c3ccc(Br)cc3)n3ncnc3N2)s1 (stereo not drawn),-22,x
Cc1ccsc1C1C=C(c2ccc(Br)cc2)Nc2ncnn21 (stereo not drawn),n,x
COc1ccc(-c2cc(C)no2)cc1S(=O)(=O)Nc1ccc(C)c(N(C)C)c1,n,n
Cc1ccc(Nc2c(-c3ccccc3O)nc3cc(C)ccn23)cc1,n,n
NC(=O)C[n+]1ccn2c(NC3CCCCC3)c(-c3ccccc3O)nc2c1,-75,x
COc1ccc2c(c1)c(CC(=O)Nc1ccc(NC(C)=O)cc1)c(C)n2C(=O)c1ccc(Cl)cc1,x,n
CCn1c(O)c(/C=c2/c(C)c(C#N)c3nc4ccccc4n3c2=O)n(CC)c1=S,-48,x
CCc1c(C)c(C#N)c2nc3ccccc3n2c1Nc1ccncc1,n,x
CCc1c(C)c(C#N)c2nc3ccccc3n2c1NCCN(C)C,x,n
Cc1c(C#N)c2nc3ccccc3n2c(=O)/c1=C/NN1C(=O)CNC1=S,-31,n
O=C(NCC(F)(F)F)c1ccc(N2CCCC2=O)cc1,x,n
O=C(O)c1ccccc1-c1nnc2c(Cl)cc(C(F)(F)F)cn12,n,n
Fc1ccccc1-c1nnc2ccc(C(F)(F)F)cn12,x,57
CC(C)CC(=O)N1CCCN(C(=O)Nc2ccc(S(=O)(=O)N3CCOCC3)s2)CC1,n,x
CCOC(=O)c1c2ccc(O)cc2n2ccccc12,69,n
CCOC(=O)c1c(C)n(C)c2ccc(O)cc12,n,n
CCOC(=O)/C(C#N)=C/c1ccccc1,n,n
CCOC(=O)/C(C#N)=C\c1ccc(N2CCOCC2)cc1,-45,n
O=S(=O)(c1ccc(Cl)cc1)N1CCN(c2nc3ccccc3n3cccc23)CC1,n,n
CCN1/C(=C/C=C2/C(=O)N(C)C(=S)N2C)Oc2ccccc21,n,n
CCCN1C(=S)N(CCO)C(=O)/C1=C/C=C1/Oc2ccccc2N1CCC(=O)O,-20,n
COc1cc(NS(=O)(=O)c2ccc3c(c2)-c2oncc2CO3)cc(OC)c1OC,n,x
CCOC(=O)c1sc(/N=C/c2cccc(Br)c2)cc1C,x,n
COC(=O)CSc1nc2ccccc2[nH]1,n,n
O=C(O)CSCc1nc2ccccc2[nH]1,x,n
SMILES,GIV-Gai inh,HCMV NEC inh
COC(=O)CSCc1nc2ccccc2[nH]c1=O,n,57
O=C(O)CSCc1nc2ccccc2[nH]c1=O,n,52
CCc1cc(SC(C)C(=O)c2c(N)n(C)c(=O)n(C)c2=O)n2c(nc3ccccc32)c1C#N (stereo not drawn),x,n
CCCC(=O)Nc1cccn(Cc2cccc(OC)c2)c1=O,n,50
COc1cccc(Cn2ccn(Cc3ccccc3)c(=O)c2=O)c1,n,n
CCOc1cc(C=C2C(=O)N(C)C(=O)N(C)C2=O)ccc1OCCOc1ccc([N+](=O)[O-])cc1,n,55
CCOc1cc(C=C2C(=O)N(C)C(=O)N(C)C2=O)ccc1OCCOCCOc1ccc(C)cc1,n,n
O=C(CSc1c(-c2ccccc2)c2cc(Cl)ccc2[nH]c1=O)N1CCCCC1,n,n
O=S(=O)(c1ccc2c(c1)OCCO2)N1CCCCC1c1cccnc1 (stereo not drawn),-71,n
O=S(=O)(c1ccc2nsnc2c1)N1CCCCC1c1cccnc1 (stereo not drawn),n,n
O=c1[nH]c2cc(Br)cnc2[nH]1,n,77
O=c1[nH]c2ccccc2[nH]1,x,n
N#Cc1c(N2CCCC(C(=O)O)C2)nc(N)c2c(N)nc3c(c12)CC(=O)N3C1CCCC1 (stereo not drawn),x,n
CN(CCO)c1nc(N)c2c(N)nc3c(c2c1C#N)CC(=O)N3C1CCCC1,x,101
Cc1cc(C)c(C#N)c(N2CCN(c3cccc(C)c3C)CC2)n1,n,n
O=C(O)C(Cc1ccccc1)N=Cc1c(O)c2ccccc2oc1=O (stereo not drawn),n,n
O=C(O)C(Cc1ccc(O)cc1)N=Cc1cccc2ccccc12 (stereo not drawn),x,95
CC(C)(C)C(=O)Nc1ccc2c(c1)C(=O)C(=O)c1ccccc1-2,x,122
CC(C)(C)C(=O)Nc1ccc(-c2nc3ccccc3s2)c(O)c1,x,n
CCOc1cc(C(=O)OCCN2C(=O)c3ccccc3C2=O)ccc1OCC(=O)N1CCCCC1,x,n
O=c1c2ccccc2n2c(-c3ccc(Cl)cc3)nnc2n1CCc1ccccc1,n,59
O=c1c2ccccc2n2c(-c3ccc(F)c(F)c3)nnc2n1CCc1ccccc1,n,n
CC(C)c1ccc(Nc2nn3c(=O)c4ccccc4nc3s2)cc1,n,38
COc1ccc(Nc2nn3c(=O)c4ccccc4nc3s2)cc1,x,n
COc1ccc(C2=NN(C(=O)CSc3nnc(CNC(=O)c4ccco4)n3C)C(c3ccc(F)cc3)C2)cc1 (stereo not drawn),n,x
O=C(CCCc1nnc2c(=O)n(-c3ccc(F)c(F)c3)ccn12)N1CCN(c2ccccn2)CC1,n,n
